# Data: patent US20060128688A1, “Asenapine for the treatment of schizophrenia in a patient with overweight or predisposition for overweight” (priority 2003, published 2006)
# Read-outs that look alike come from different tables or passages of the source.
# [1] = All-Subjects-Treated Group, baseline to day 42 or final day of treatment
smiles,measurement,setting,value
Cc1nc2n(c(=O)c1CCN1CCC(c3noc4cc(F)ccc34)CC1)CCCC2 [risperidone],"subjects with clinically significant decrease of ≧7% from baseline in body weight, %",[1],2.1%
same,"subjects with clinically significant weight gain (increase from baseline of ≧7%), %",[1],17%
same,"subjects with clinically significant weight gain (increase from baseline of ≧7%), %","All-Subjects-Treated Group, baseline to day 42 or final day of treatment, listed as Risperidone",17.0%
same,increase in body weight from baseline,"at end point, group result",1.9%
